Assay results as given in patent publication US20050180956A1, “SSAO enzyme substrates for vasorelaxation, and methods of use thereof” (priority 2004, published 2005).
Where two headings read alike, the source gives them in different places.

Experiments:
[1] = system: human right saphenous vein (RSV)
[2] = system: human right saphenous vein (RSV); test: tissue or blood
[3] = system: isolated human blood vessels
rat thoracic aorta (TA) = settings: 10 min; for % Response, contraction (C), rat Old W thoracic aorta / % Response, relaxation (R), rat Old W thoracic aorta: NE-precontracted (1 μM) TA of 1-yr old Wistar rats; for % Response, contraction (C), rat Old W thoracic aorta / % Response, relaxation (R), rat Old W thoracic aorta / % Response, contraction (C), rat Young SD thoracic aorta / % Response, relaxation (R), rat Young SD thoracic aorta: 1 mmol/L, mean ± SE; for % Response, contraction (C), rat Young SD thoracic aorta / % Response, relaxation (R), rat Young SD thoracic aorta: NE-precontracted (1 μM) TA of 18-20 week old Sprague-Dawley rats
[4] = system: isolated human blood vessels; test: tissue or blood; settings: read-out: apparent EC50s in all three human vessels, approximate range
[5] = read-out: Apparent EC50, contraction (C), RSV
[6] = read-out: Apparent EC50, relaxation (R), RSV
[7] = NE-precontracted (1 μM) RSV, 10 min exposure to 1 mmol/L, mean ± SE

SMILES | % Relaxation, RSV [1] [%] | % Response, contraction (C), RSV [1] [%] | % Response, relaxation (R), RSV [1] [%] | EC50 [2, 5] [µM] | EC50 [2, 6] [µM] | lowest formaldehyde concentration to which a vessel responded ([3]; 6 human vessels (3 LIMA and 3 RSV), cumulative concentrations) [mmol/L] | overt toxicity (near complete loss of tension response to HI K+ after washout), human vessels ([3]; formaldehyde 1 mmol/L, 10 min, 3 LIMA and 3 RSV) | % Response, contraction (C), rat Old W thoracic aorta (rat thoracic aorta (TA)) [%] | % Response, relaxation (R), rat Old W thoracic aorta (rat thoracic aorta (TA)) [%] | % Response, contraction (C), rat Young SD thoracic aorta (rat thoracic aorta (TA)) [%] | % Response, relaxation (R), rat Young SD thoracic aorta (rat thoracic aorta (TA)) [%] | overt toxicity (near complete loss of tension response to HI K+ after washout), rat TA (rat thoracic aorta (TA); formaldehyde 1 mmol/L, vessels affected of vessels exposed) | EC50 [4] [µM] | effect of pretreatment on methylamine responses in RSV [1] | % Response, contraction (C), RSV [1, 7] [%] | % Response, relaxation (R), RSV [1, 7] [%]
CN [methylamine] | 57.2 ± 6.2 | 17.4 ± 3.8 | 20.6 ± 4.3 | 200 ± 52 | 230 ± 28 | – | – | – | – | – | – | – | – | – | – | –
C=O [Formaldehyde, formaldehyde] | – | 2.6 ± 2.6 | 31.7 ± 15.9 | 315 | 315 | ≥ 1 | none of the 6 | 2.6 ± 1.8 | 37.5 ± 16.2 | 2.1 ± 2.1 | 37.5 ± 21.6 | 2 of 18 | 200 to 300 | – | – | –
NNC(N)=O [semicarbazide] | – | – | – | – | – | – | – | – | – | – | – | – | – | completely blocked methylamine responses in RSV | – | –
OO [H2O2, hydrogen peroxide] | – | – | – | 220 ± 38 | 315 | – | – | 13.6 ± 3.1 | 56.6 ± 6.3 | 41.2 ± 11.5 | 50.8 ± 18.2 | – | 200 to 300 | – | 25.4 ± 5.6 | 6.5 ± 3.2
